Values quoted from earlier work in PMC3583384 (Journal of medicinal chemistry, 2012).

Columns and labels:
[1] = system: non-iron-overloaded bile duct-cannulated rats; conditions: rats po 300 µmol/kg, monosodium salt; cited from earlier work
iron overloaded primates = conditions: primates po 150 µmol/kg; cited from earlier work

C[C@]1(C(=O)[O-])CSC(c2ccc(O)cc2O)=N1.[Na+] [Compound 3, (S)-2-(2,4-dihydroxyphenyl)-4,5-dihydro-4-methyl-4-thiazolecarboxylic acid]
relative percentages of the iron excreted in the bile and urine [bile/urine] [1]: 100/0 | relative percentages of the iron excreted in the feces and urine [feces/urine] (iron overloaded primates): 88/12
